The values below come from PubChem BioAssay AID1517 (The Scripps Research Institute Molecular Screening Center, 2009).

Sequences of proteins named here, by UniProt entry; tags and fusion partners are left off.
UniProt P55072, whole entry, looked up: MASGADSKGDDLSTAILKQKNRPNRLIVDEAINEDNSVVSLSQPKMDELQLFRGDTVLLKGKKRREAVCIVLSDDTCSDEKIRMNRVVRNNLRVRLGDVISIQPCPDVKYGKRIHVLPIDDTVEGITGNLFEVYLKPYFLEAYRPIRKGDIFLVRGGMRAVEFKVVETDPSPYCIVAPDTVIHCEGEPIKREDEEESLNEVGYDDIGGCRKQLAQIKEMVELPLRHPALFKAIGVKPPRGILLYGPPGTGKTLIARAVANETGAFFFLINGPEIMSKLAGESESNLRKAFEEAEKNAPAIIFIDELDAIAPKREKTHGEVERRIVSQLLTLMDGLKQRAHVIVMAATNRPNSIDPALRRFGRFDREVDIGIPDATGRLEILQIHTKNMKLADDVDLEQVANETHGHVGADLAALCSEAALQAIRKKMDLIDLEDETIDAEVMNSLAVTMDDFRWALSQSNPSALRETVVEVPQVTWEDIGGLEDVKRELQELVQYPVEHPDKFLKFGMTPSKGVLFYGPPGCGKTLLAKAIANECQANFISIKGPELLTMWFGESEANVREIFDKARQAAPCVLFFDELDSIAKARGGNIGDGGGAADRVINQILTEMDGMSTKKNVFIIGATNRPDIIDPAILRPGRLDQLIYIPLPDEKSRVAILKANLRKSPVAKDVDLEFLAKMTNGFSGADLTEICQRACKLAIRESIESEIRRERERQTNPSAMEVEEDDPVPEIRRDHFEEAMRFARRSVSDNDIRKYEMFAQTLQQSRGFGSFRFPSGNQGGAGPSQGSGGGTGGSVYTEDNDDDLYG

Only a part is listed here, and it is no random draw. Calls of active or inactive are those of the source.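 Rule for the calls: active = percent inhibition of p97 ATPase above a set limit, the primary screen's mean plus 3 SD (cut at about 15% in these data); inactive = the rest.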

The test addresses Transitional endoplasmic reticulum ATPase (Homo sapiens) (UniProt P55072). The experiment in a line: blockers of p97 ATP hydrolysis – biochemical, confirmation (AID 1517).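 Note: 0% = DMSO wells and 100% = wells lacking p97 protein.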 The following applies: recombinant p97 ATPase, Kinase-Glo ATP luminescence; at 8 µM; active compounds read high. An outline of the steps: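 Material: recombinant p97; timing: 30 min preincubation at 25 °C plus 3 h with ATP; signal: Kinase-Glo luminescence; read-out basis: percent inhibition of ATPase activity, normalized to DMSO and no-enzyme wells; benchmarks: DMSO wells without compound and wells lacking p97 enzyme; repeats: triplicate wells per compound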

With `C[N+]1=C2C=CC=CC=C2SC12C([N+](=O)[O-])=CC([N+](=O)[O-])=C[C-]2[N+](=O)[O-]` (configuration not stated), the inhibition is inactive: 4.13%.
For `CCc1nc2c(n1)c1c(non1O)c1c2no[n+]1[O-]`, the inhibition is active: 18.8%.
